Reference: patent US20260274819A1, “ULK1 INHIBITOR, PREPARATION METHOD THEREFOR AND USE THEREOF” (DOVETREE MEDICINES UNUS, INC., priority 2023, published 2026)

Chains of the proteins cited; added tags and fusions are not shown. Residues count along the entry.
UniProt O75385, 1-649 limits assumed: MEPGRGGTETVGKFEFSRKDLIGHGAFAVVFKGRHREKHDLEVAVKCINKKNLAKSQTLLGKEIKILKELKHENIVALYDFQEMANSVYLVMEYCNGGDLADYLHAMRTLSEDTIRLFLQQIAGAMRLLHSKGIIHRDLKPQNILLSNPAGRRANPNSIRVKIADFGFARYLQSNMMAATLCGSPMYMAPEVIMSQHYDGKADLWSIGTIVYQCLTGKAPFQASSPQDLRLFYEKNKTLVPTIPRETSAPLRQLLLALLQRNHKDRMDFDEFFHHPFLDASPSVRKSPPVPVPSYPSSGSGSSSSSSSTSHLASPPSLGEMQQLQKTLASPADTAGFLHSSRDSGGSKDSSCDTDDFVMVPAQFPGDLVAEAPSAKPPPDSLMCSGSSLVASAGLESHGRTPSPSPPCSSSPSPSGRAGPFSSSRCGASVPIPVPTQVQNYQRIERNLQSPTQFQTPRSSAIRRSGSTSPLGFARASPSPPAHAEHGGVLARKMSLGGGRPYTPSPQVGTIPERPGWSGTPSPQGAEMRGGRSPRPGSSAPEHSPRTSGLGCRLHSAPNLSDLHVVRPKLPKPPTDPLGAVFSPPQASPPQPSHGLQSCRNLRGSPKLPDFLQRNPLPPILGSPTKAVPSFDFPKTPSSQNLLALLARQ

The molecules below were run against ULK1 (Homo sapiens, UniProt O75385) (assay: Inhibition of ULK1 protein activity (ADP-Glo method)). Details: read-out: ULK1 IC50, ULK1 enzyme, ATP and MBP substrate, 60 min room temperature.
Description: In this experiment, the inhibitory effect of a compound on the phosphorylation function of ULK1 was detected by ADP-Glo method. The inhibitory effect of the compound of the present disclosure on the ULK1 target was evaluated based on IC50.
Compound formulation: Using an ECHO (Beckman, ECHO650), the compound was serially diluted 3-fold in DMSO in a 384-well plate (PE, 6007290). A total of 10 concentration points were set, with the maximum concentration of the compound being 10 μM, and 50 nL per well. Positive control wells and negative control wells were added with 50 nL DMSO, respectively.
Reaction process: A 32 nM of ULK1 (Promega, V3521) solution was formulated, and 2.5 μL/well was transferred to the compound test wells and the negative control wells (NC). 2.5 μL/well of 1× Assay buffer was added to the positive control wells (PC). A mixed solution of 100 μM of ATP and 1.86 μM of MBP was formulated, and 2.5 μL/well was transferred to the reaction plate. After centrifugation, the reaction was initiated and incubated at room temperature for 60 min. After the reaction was completed, 5 μL/well of ADP-Glo Reagent (Promega, V9102) was added to the reaction plate. After centrifugation, the reaction was incubated at room temperature for 40 minutes. Finally, 10 μL/well of Kinase Detection Buffer was added, followed by centrifugation and incubation at room temperature for 30 min. The chemiluminescence value was read using Envision (PE, Envision2105).
Assay buffer: a reaction buffer; and Kinase Detection buffer: a detection buffer, both were taken from the ADP-Glodetection kit, purchased from Promega, model V9102. 3. Data analysis
The inhibition ratio of a compound on ULK1 activity was calculated using the following formula:
Inhibition ratio=(sample signal value−negative control signal value)/(positive control signal value−negative control signal value)×100%. The dose-effect curve was fitted using the log(inhibitor) vs. response -Variable slope of the analysis software GraphPad Prism 8, thereby affording the IC50 value of each compound for enzyme activity.

| Structure (SMILES) | IC50 [nM] |
| --- | --- |
| CN1CCN(c2ccc(Nc3ncc(C(F)(F)F)c(CN4CCN(C)C(=O)C4)n3)c(C3CC3)c2)CC1 | > 1000 |
| CN1CCN(c2ccc(Nc3ncc(C(F)(F)F)c(OCCCc4ccccc4C#N)n3)c(C3CC3)c2)CC1 | < 100 |
| CN1CCc2cc(Nc3ncc(C(F)(F)F)c(OCCCn4cccn4)n3)ccc2C1 | < 100 |
